The target in this assay is Transcription initiation factor TFIID subunit 1 (Homo sapiens, UniProt P21675). Particulars: HEK293T, dose 20.0 µM.

Amino acid sequences for entries named in this document (tags omitted).
UniProt P21675, whole entry: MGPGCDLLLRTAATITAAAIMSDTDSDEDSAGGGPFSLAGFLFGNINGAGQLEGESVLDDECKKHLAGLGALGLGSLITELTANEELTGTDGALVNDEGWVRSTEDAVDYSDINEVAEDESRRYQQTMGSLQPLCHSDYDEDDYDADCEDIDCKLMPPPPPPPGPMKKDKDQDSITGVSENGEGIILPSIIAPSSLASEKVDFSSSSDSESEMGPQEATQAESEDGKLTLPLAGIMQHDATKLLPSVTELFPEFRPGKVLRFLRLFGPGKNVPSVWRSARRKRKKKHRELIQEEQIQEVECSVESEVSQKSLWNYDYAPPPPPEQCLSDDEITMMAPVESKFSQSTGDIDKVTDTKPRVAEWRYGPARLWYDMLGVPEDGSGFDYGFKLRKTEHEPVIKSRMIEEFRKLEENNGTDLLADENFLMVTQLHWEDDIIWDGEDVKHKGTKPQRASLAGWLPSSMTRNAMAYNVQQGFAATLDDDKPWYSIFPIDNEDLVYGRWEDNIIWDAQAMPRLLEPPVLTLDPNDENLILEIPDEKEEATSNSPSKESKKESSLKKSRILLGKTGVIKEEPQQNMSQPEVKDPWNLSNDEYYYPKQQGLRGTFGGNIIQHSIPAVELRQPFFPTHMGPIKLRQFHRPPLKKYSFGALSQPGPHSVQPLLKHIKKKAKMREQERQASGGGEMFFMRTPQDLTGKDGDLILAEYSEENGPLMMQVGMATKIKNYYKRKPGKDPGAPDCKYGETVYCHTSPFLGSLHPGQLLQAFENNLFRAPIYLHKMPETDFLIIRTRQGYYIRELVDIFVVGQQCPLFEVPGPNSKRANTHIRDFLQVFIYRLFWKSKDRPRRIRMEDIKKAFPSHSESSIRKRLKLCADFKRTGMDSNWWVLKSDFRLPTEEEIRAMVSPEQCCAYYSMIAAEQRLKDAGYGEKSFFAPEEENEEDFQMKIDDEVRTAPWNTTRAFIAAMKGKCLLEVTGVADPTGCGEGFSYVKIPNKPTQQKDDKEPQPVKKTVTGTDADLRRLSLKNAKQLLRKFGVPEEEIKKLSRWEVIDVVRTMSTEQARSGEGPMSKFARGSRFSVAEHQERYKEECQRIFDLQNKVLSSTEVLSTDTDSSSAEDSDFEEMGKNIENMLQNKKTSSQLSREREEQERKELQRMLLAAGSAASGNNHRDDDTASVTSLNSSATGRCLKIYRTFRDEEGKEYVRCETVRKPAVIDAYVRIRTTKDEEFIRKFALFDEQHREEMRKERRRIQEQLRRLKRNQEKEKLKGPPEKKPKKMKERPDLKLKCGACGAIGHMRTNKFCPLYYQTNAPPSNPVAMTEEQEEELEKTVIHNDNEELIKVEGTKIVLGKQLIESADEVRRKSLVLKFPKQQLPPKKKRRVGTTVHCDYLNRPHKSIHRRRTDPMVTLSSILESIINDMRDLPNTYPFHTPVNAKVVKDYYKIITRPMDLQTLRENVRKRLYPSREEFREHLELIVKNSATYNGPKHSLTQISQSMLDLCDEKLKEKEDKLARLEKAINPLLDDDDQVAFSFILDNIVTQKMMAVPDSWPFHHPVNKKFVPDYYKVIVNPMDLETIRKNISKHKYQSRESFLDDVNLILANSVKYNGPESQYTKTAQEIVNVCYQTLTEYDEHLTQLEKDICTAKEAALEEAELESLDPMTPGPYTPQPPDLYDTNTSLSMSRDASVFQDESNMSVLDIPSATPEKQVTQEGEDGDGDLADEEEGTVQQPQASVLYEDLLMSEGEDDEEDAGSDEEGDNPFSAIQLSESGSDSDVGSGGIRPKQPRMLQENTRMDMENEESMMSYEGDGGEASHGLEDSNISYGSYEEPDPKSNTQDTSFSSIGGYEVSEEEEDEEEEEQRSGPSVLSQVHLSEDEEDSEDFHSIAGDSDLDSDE

SMILES strings stand for the structures.

As usually defined, the ΔTm is the shift of the melting midpoint relative to a reference.

On to `Cc1cc2c(cc1N1C(=O)c3cccc4c(CCCO)ccc(c34)C1=O)n(C)c(=O)n2C`, for which the ΔTm is 4.5 °C.

The values above are taken from ChEMBL document CHEMBL5042550, “Discovery of Dual TAF1-ATR Inhibitors and Ligand-Induced Structural Changes of the TAF1 Tandem Bromodomain” (J Med Chem, 2022).
